Test results from patent publication US7208311B2, “Catalytic domain of ADAM33 and methods of use thereof” (Schering Corporation, priority 2002, dated 2007).

Chains of the proteins cited; added tags and fusions are not shown. Residues count along the entry.
UniProt Q9BZ11, 204-409 limits assumed: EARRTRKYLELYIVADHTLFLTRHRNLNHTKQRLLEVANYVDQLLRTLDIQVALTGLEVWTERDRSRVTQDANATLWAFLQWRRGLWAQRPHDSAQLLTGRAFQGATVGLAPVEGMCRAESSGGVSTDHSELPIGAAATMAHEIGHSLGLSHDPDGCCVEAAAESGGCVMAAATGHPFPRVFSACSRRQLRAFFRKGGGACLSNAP

Target: ADAM33 (Homo sapiens, UniProt Q9BZ11)
Assay: HPLC inhibition assay, ADAM33cat with KL-1 peptide substrate
Details: ADAM33cat 80 nM, KL-1 peptide 100 μM, 2 h RT
Description: The inhibition dissociation constants (Ki) for inhibitors were determined as follows: an HPLC assay was performed in the presence or absence of inhibitors for 2 h at RT using ADAM33cat (80 nM) and KL-1 peptide substrate (100 μM). For testing tissue inhibitor of metalloproteinases (TIMPs), ADAM33 and human TIMPs were pre-incubated for 1 h at RT. […] Initial velocities were calculated by dividing cleaved product over reaction time. The initial velocities were plotted as a function of inhibitor concentration. For tight binding inhibitors (IK682, TIMP-3), the apparent inhibitor dissociation constants (Ki app values) were calculated by fitting the curve to the following modified Morrison's equation: vi=vo{[(Eo−Io−Ki^app)^2+4 Ki^appEo]^1/2+(Eo−IoKI^app)}/2Eo where Ki^app=Ki(1+S/Km), vo is the uninhibited initial velocity, vi is the initial velocity in the presence of inhibitor at any given inhibitor concentration Io, and Eo is initial enzyme concentration. When the substrate concentration S<<Km, Ki^app is approximately equal to Ki.

Cc1cc(COc2ccc([C@]3(C)CCN([C@H](C)C(=O)NO)C3=O)cc2)c2ccccc2n1
Ki: 23 nM
